{"source": "patent US6270979A", "about": "(priority 1998, dated 2001)", "key": {"opioid μ receptor": {"tested_on": "opioid μ receptor", "format": "cell-based, human"}, "Male ICR mice": {"tested_on": "Male ICR mice", "conditions": "mouse, in vivo"}}, "note": "“Also recorded” adds a separate entry of the source."}
{"smiles": "CNCCNS(=O)(=O)c1cccc2cnccc12", "note": "[H8]", "values": [{"measurement": "effect on naloxone cAMP overshoot / formation of μ* when added with morphine pretreatment", "setting": "opioid μ receptor", "value": "had no such effect; also recorded: fails to block μ* function"}, {"measurement": "effect on spontaneous cAMP overshoot induced by morphine pretreatment", "setting": "opioid μ receptor", "value": "had some effects on the spontaneous cAMP overshoot"}, {"measurement": "effect on naloxone induced withdrawal jumping", "setting": "Male ICR mice", "value": "without effect on naloxone induced jumping"}, {"measurement": "reversal of morphine dependence", "setting": "Male ICR mice", "value": "but not H8"}]}
